Results reported in US5308869A, “Substituted amidines having high binding to the sigma receptor and the use thereof” (priority 1992, dated 1994).

Test system: sigma receptor
Assay: Sigma receptor binding assay, [^3 H]DTG, guinea pig brain membrane homogenates
Settings: guinea pig brain membranes; drug specificity profile

CC1C2Cc3ccc(O)cc3C1(C)CCN2CC1CC1 (single isomer, unassigned; (+)) [(+)cyclazocine]
Binding to / selectivity at [^3 H]DTG-labelled sigma sites: stereoselectivity for dextrorotatory isomers
